ChEMBL document CHEMBL3259737, “Lead optimization studies of cinnamic amide EP2 antagonists” (J Med Chem, 2014)

The chains behind the UniProt entries cited, without tags or fusion partners. Where a name states a change or a piece, a line headed by the entry shows the natural chain unless it says otherwise.
UniProt P43116: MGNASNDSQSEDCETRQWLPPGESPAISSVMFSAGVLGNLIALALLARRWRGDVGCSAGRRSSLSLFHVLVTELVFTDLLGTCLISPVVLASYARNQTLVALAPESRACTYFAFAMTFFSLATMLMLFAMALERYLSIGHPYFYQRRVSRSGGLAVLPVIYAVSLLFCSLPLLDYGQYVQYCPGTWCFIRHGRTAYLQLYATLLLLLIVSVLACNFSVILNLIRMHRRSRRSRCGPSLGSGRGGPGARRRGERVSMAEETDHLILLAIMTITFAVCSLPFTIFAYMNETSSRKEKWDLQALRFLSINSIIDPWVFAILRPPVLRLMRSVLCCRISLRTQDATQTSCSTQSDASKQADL

How the values were obtained:
[1] = biological target: Prostaglandin E2 receptor EP2 subtype (Homo sapiens) (UniProt P43116); test: Competitive antagonist activity at human EP2 receptor expressed in rat C6 cells assessed as parallel rightward shift in PGE2 concentration response curve treated for 10 mins prior to PGE2 challenge for 40 mins by TR-FRET assay; format: cell-based
C6 = test: Cytotoxicity against rat C6 cells assessed as cell viability
[2] = Metabolic stability in mouse liver microsomes assessed as compound remaining at 1 uM after 60 mins
[3] = Ratio of drug level in brain to plasma in C57BL/6 mouse at 5 mg/kg, ip measured after 1 to 2 hrs
[4] = Ratio of drug level in brain to plasma in C57BL/6 mouse at 10 mg/kg, po measured after 1 to 2 hrs
in vivo [5] = conditions: C57BL/6, mouse, ip, 5 mg/kg
in vivo [6] = conditions: C57BL/6, mouse, po, 10 mg/kg

Compound | Kb [1] | inhibition [1] | CC50 (C6) | remaining at 1 h, 1 µM [2] | Kp [3] | Kp [4] | Cmax (in vivo [5]) | Cmax (in vivo [6])
Cc1[nH]c2ccccc2c1CCNC(=O)/C=C/c1ccc(OCCO)c(OCCO)c1 | 47.1 nM | Dose-dependent effect | – | – | – | – | – | –
Cc1cc2ccccc2n1CCNC(=O)/C=C/c1ccc(OCCO)c(OCCO)c1 | 14.8 nM | Dose-dependent effect | – | – | – | – | – | –
COc1cc(/C=C/C(=O)NCCn2c(C(F)(F)F)cc3ccccc32)cc(OC)c1OC | – | – | 81000 nM | 2% | 1.8 | 1.6 | 115 ng/mL | 248 ng/mL
